Data as given in PMC9747113 (Clinical and Translational Science, 2022).

Assay: Population PK model of evobrutinib plasma concentration-time data

For `C=CC(=O)N1CCC(CNc2ncnc(N)c2-c2ccc(Oc3ccccc3)cc2)CC1` [evobrutinib, Evobrutinib], the “Food on D 1” value (covariate effect, fed D1 = D1*(1 + 4.27)) was 4.27, the “Zero-order absorption D 1 (duration of zero-order input)” value (fasted condition) was 0.181 h and the “D 1 (duration of zero-order input)” value (fed condition (low-fat meal)) was 0.954 h. For the same compound, the “Increase of duration of the first-order input with food compared with fasted” value (low-fat meal vs fasted) was 427%.
